# Source: US20250134864A1, “METHODS OF WEIGHT LOSS AND PRESERVING SKELETAL MUSCLE MASS” (published 2025)
# Legend:
# [1] = Phase 2a trial: InBody scale measurements of body weight and body composition
# [2] = Phase 2a trial: liver fat content by MRI-PDFF; settings: for Non-responder (liver fat by MRI-PDFF) / Responder (>30% liver fat reduction by MRI-PDFF): Day 61; for Relative reduction in liver fat: overall population; for Placebo-corrected mean percent change from baseline in liver fat (MRI-PDFF): range over doses
# [3] = 450 mg, HbA1c 5.7% to 9.0% Subgroup
# [4] = 450 mg, HbA1c 5.7%-9.0% subgroup
# [5] = 150 mg once daily oral, FAS population
# [6] = 150 mg once daily oral, HbA1c 5.7%-9.0% subgroup
# [7] = 150 mg, HbA1c 5.7% to 9.0% Subgroup
# [8] = 300 mg once daily oral, FAS population
# [9] = 300 mg once daily oral, HbA1c 5.7%-9.0% subgroup
# [10] = 300 mg, HbA1c 5.7% to 9.0% Subgroup
# [11] = 450 mg once daily oral, FAS population
# [12] = 450 mg once daily oral, HbA1c 5.7%-9.0% subgroup
smiles,measurement,setting,value
Cn1c(COc2ccc([N+](=O)[O-])cc2[N+](=O)[O-])cnc1[N+](=O)[O-],"Body Fat Mass, Change from Baseline to Day 61, Mean","[1]; 450 mg, FAS population",−5.3 lbs
same,"Body Fat Mass, Change from Baseline to Day 61, Median","[1]; 450 mg, FAS population",−5.2 lbs
same,"Body Fat Mass, Day 61, Mean","[1]; 450 mg, FAS population",97.7 lbs
same,"Body Fat Mass, Day 61, Median","[1]; 450 mg, FAS population",105.3 lbs
same,"Body Fat Mass, Difference in LS Mean at Day 61 (Compound 1 v. Placebo)",[1]; [3],−10.57 pounds
same,"Body Fat Mass, LS Mean (Day 61 − Baseline), MMRM",[1]; [3],−9.02 pounds
same,"Dry Lean Mass, Difference in LS Mean at Day 61 (Compound 1 v. Placebo)",[1]; [3],0.61 pounds
same,"Dry Lean Mass, LS Mean (Day 61 − Baseline), MMRM",[1]; [3],0.21 pounds
same,"Lean Body Mass, Difference in LS Mean at Day 61 (Compound 1 v. Placebo)",[1]; [3],0.91 pounds
same,"Lean Body Mass, LS Mean (Day 61 − Baseline), MMRM",[1]; [3],−0.07 pounds
same,"Percent Body Fat, Difference in LS Mean at Day 61 (Compound 1 v. Placebo)",[1]; [3],−2.64%
same,"Percent Body Fat, LS Mean (Day 61 − Baseline), MMRM",[1]; [3],−2.20%
same,"Skeletal Muscle Mass, Difference in LS Mean at Day 61 (Compound 1 v. Placebo)",[1]; [3],0.76
same,"Skeletal Muscle Mass, LS Mean (Day 61 − Baseline), MMRM",[1]; [3],0.05
same,"Body Fat Mass, Change from Baseline to Day 61, Mean",[1]; [4],−9 lbs
same,"Body Fat Mass, Change from Baseline to Day 61, Median",[1]; [4],−8 lbs
same,"Body Fat Mass, Day 61, Mean",[1]; [4],97.8 lbs
same,"Body Fat Mass, Day 61, Median",[1]; [4],110.2 lbs
same,"Skeletal Muscle Mass, Change from Baseline to Day 61, Mean","[1]; 450 mg, all subjects",−0.47 lbs
same,"Skeletal Muscle Mass, Change from Baseline to Day 61, Median","[1]; 450 mg, all subjects",−0.20 lbs
same,Lean body mass,"[1]; Compound 1 treatment, Day 61",Lean body mass was preserved
same,Muscle mass from base line,[1]; participants with elevated HbA1c (>5.7 at baseline),no reduction of muscle mass was observed from base line
same,Non-responder (liver fat by MRI-PDFF),[2]; [5],10 (50.0%)
same,Responder (>30% liver fat reduction by MRI-PDFF),[2]; [5],40%
same,Responder (>30% liver fat reduction by MRI-PDFF),"[2]; 150 mg once daily oral, FAS population, listed as CM1",8 (40.0%)
same,Non-responder (liver fat by MRI-PDFF),[2]; [6],3 (42.9%)
same,Responder (>30% liver fat reduction by MRI-PDFF),[2]; [6],43%
same,Responder (>30% liver fat reduction by MRI-PDFF),"[2]; 150 mg once daily oral, HbA1c 5.7%-9.0% subgroup, listed as CM1",3 (42.9%)
same,"MRI-Proton Density Fat Fraction, Day 61, Mean","[2]; 150 mg, All Subjects",13.7%
same,"MRI-Proton Density Fat Fraction, Day 61, Median","[2]; 150 mg, All Subjects",12.7%
same,"MRI-Proton Density Fat Fraction, Day 61 − Baseline, LS Mean","[2]; 150 mg, All Subjects",−4.64%
same,"MRI-Proton Density Fat Fraction, Day 61 − Baseline, Mean","[2]; 150 mg, All Subjects",−5.0%
same,"MRI-Proton Density Fat Fraction, Day 61 − Baseline, Median","[2]; 150 mg, All Subjects",−5.8%
same,"MRI-Proton Density Fat Fraction, Difference in LS Mean, Compound 1 − Placebo, Day 61","[2]; 150 mg, All Subjects",−5.21%
same,"MRI-Proton Density Fat Fraction, Day 61, Mean",[2]; [7],16.2%
same,"MRI-Proton Density Fat Fraction, Day 61, Median",[2]; [7],19.0%
same,"MRI-Proton Density Fat Fraction, Day 61 − Baseline, LS Mean",[2]; [7],−5.35%
same,"MRI-Proton Density Fat Fraction, Day 61 − Baseline, Mean",[2]; [7],−6.6%
same,"MRI-Proton Density Fat Fraction, Day 61 − Baseline, Median",[2]; [7],−8.0%
same,"MRI-Proton Density Fat Fraction, Difference in LS Mean, Compound 1 − Placebo, Day 61",[2]; [7],−5.83%
same,Non-responder (liver fat by MRI-PDFF),[2]; [8],5 (23.8%)
same,Responder (>30% liver fat reduction by MRI-PDFF),[2]; [8],71%
same,Responder (>30% liver fat reduction by MRI-PDFF),"[2]; 300 mg once daily oral, FAS population, listed as CM1",15 (71.4%)
same,Non-responder (liver fat by MRI-PDFF),[2]; [9],1 (12.5%)
same,Responder (>30% liver fat reduction by MRI-PDFF),[2]; [9],75%
same,Responder (>30% liver fat reduction by MRI-PDFF),"[2]; 300 mg once daily oral, HbA1c 5.7%-9.0% subgroup, listed as CM1",6 (75.0%)
same,"MRI-Proton Density Fat Fraction, Day 61, Mean","[2]; 300 mg, All Subjects",11.2%
same,"MRI-Proton Density Fat Fraction, Day 61, Median","[2]; 300 mg, All Subjects",10.4%
same,"MRI-Proton Density Fat Fraction, Day 61 − Baseline, LS Mean","[2]; 300 mg, All Subjects",−6.21%
same,"MRI-Proton Density Fat Fraction, Day 61 − Baseline, Mean","[2]; 300 mg, All Subjects",−6.2%
same,"MRI-Proton Density Fat Fraction, Day 61 − Baseline, Median","[2]; 300 mg, All Subjects",−5.9%
same,"MRI-Proton Density Fat Fraction, Difference in LS Mean, Compound 1 − Placebo, Day 61","[2]; 300 mg, All Subjects",−6.77%
same,"MRI-Proton Density Fat Fraction, Day 61, Mean",[2]; [10],14.0%
same,"MRI-Proton Density Fat Fraction, Day 61, Median",[2]; [10],16.1%
same,"MRI-Proton Density Fat Fraction, Day 61 − Baseline, LS Mean",[2]; [10],−6.41%
same,"MRI-Proton Density Fat Fraction, Day 61 − Baseline, Mean",[2]; [10],−7.1%
same,"MRI-Proton Density Fat Fraction, Day 61 − Baseline, Median",[2]; [10],−9.0%
same,"MRI-Proton Density Fat Fraction, Difference in LS Mean, Compound 1 − Placebo, Day 61",[2]; [10],−6.89%
same,Non-responder (liver fat by MRI-PDFF),[2]; [11],5 (27.8%)
same,Responder (>30% liver fat reduction by MRI-PDFF),[2]; [11],72%
same,Responder (>30% liver fat reduction by MRI-PDFF),"[2]; 450 mg once daily oral, FAS population, listed as CM1",13 (72.2%)
same,Non-responder (liver fat by MRI-PDFF),[2]; [12],1 (14.3%)
same,Responder (>30% liver fat reduction by MRI-PDFF),[2]; [12],86%
same,Responder (>30% liver fat reduction by MRI-PDFF),"[2]; 450 mg once daily oral, HbA1c 5.7%-9.0% subgroup, listed as CM1",6 (85.7%)
same,"MRI-Proton Density Fat Fraction, Day 61, Mean","[2]; 450 mg, All Subjects",11.2%
same,"MRI-Proton Density Fat Fraction, Day 61, Median","[2]; 450 mg, All Subjects",8.8%
same,"MRI-Proton Density Fat Fraction, Day 61 − Baseline, LS Mean","[2]; 450 mg, All Subjects",−6.03%
same,"MRI-Proton Density Fat Fraction, Day 61 − Baseline, Mean","[2]; 450 mg, All Subjects",−6.0%
same,"MRI-Proton Density Fat Fraction, Day 61 − Baseline, Median","[2]; 450 mg, All Subjects",−5.1%
same,"MRI-Proton Density Fat Fraction, Difference in LS Mean, Compound 1 − Placebo, Day 61","[2]; 450 mg, All Subjects",−6.60%
same,"MRI-Proton Density Fat Fraction, Day 61, Mean",[2]; [3],10.7%
same,"MRI-Proton Density Fat Fraction, Day 61, Median",[2]; [3],8.8%
same,"MRI-Proton Density Fat Fraction, Day 61 − Baseline, LS Mean",[2]; [3],−6.97%
same,"MRI-Proton Density Fat Fraction, Day 61 − Baseline, Mean",[2]; [3],−6.5%
same,"MRI-Proton Density Fat Fraction, Day 61 − Baseline, Median",[2]; [3],−4.7%
same,"MRI-Proton Density Fat Fraction, Difference in LS Mean, Compound 1 − Placebo, Day 61",[2]; [3],−7.45%
same,Non-responder (liver fat by MRI-PDFF),"[2]; All CM1 doses, FAS population",20 (33.9%)
same,Non-responder (liver fat by MRI-PDFF),"[2]; All CM1 doses, HbA1c 5.7%-9.0% subgroup",5 (22.74%)
same,Relative reduction in liver fat,[2]; high dose (450 mg),40%
same,Relative reduction in liver fat,[2]; low dose (150 mg),33%
same,Relative reduction in liver fat,[2]; mid dose (300 mg),43%
same,"Liver volume, SAT, and CAP score",[2]; overall group and subgroup with elevated HbA1c,Improvement
same,Placebo-corrected mean percent change from baseline in liver fat (MRI-PDFF),[2]; elevated HbA1c subgroup,−42% to −50
same,Placebo-corrected mean percent change from baseline in liver fat (MRI-PDFF),[2]; subjects overall,−33% to 43
